# Molecular target: C-Raf FL (full-length C-Raf protein, Y340E and Y341E activating mutations) (Homo sapiens (Human), UniProt P04049, Y340E/Y341E)
# Amino acid sequences for entries named in this document (tags omitted).
# UniProt P04049, whole entry Y340E/Y341E: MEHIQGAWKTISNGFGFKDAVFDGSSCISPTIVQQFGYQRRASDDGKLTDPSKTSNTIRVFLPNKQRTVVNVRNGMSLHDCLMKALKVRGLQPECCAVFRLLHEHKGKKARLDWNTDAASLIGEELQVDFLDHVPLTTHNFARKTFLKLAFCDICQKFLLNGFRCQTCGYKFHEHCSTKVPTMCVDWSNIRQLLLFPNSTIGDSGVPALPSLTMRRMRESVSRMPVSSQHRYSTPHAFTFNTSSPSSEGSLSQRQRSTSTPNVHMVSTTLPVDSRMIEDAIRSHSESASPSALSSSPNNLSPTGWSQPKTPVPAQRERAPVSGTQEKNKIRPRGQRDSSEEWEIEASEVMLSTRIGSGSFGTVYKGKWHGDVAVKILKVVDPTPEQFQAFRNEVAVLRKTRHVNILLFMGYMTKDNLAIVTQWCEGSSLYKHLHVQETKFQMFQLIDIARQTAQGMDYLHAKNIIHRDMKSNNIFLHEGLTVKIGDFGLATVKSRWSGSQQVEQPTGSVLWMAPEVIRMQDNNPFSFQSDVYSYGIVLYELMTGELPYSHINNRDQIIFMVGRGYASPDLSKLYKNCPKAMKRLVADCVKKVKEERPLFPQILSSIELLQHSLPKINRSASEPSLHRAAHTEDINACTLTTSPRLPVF
# Format: biochemical
# Conditions: Table 2; AlphaScreen, 1 hour reaction; read-out: c-Raf FL IC-50
row,IC50,SMILES
1,0.4 nM,"Cc1ccc(NC(=O)c2ccnc(C(C)(C)C#N)c2)cc1-c1cc(C2CCOCC2)nc(N2CCOCC2)c1 [Example 106, 2-(2-cyanopropan-2-yl)-N-(4-methyl-3-(2-morpholino-6-(tetrahydro-2H-pyran-4-yl)pyridin-4-yl)phenyl)isonicotinamide]"
2,0.4 nM,"Cc1ccc(NC(=O)c2cccc(C(F)(F)F)c2)cc1-c1cc(C2CCOCC2)nc(N2CCOCC2)c1 [Example 107, N-(4-methyl-3-(2-morpholino-6-(tetrahydro-2H-pyran-4-yl)pyridin-4-yl)phenyl)-3-(trifluoromethyl)benzamide]"
3,0.3 nM,"O=C(Nc1cccc(C(F)(F)F)c1)c1ccc(CF)c(-c2ccnc(N3CCOCC3)c2)c1 [Example 110, 4-(fluoromethyl)-3-(2-morpholinopyridin-4-yl)-N-(3-(trifluoromethyl)phenyl)benzamide]"
4,0.5 nM,"Cc1ccc(NC(=O)c2cccc(C(F)(F)F)c2)cc1-c1cc(-c2cnn(C)c2)nc(N2CCOCC2)c1 [Example 113, N-(4-methyl-3-(2-(1-methyl-1H-pyrazol-4-yl)-6-morpholinopyridin-4-yl)-3-phenyl)-3-(trifluoromethyl)benzamide]"
5,0.3 nM,"Cc1ccc(NC(=O)c2cccc(C(C)(C)C#N)c2)cc1-c1cc(C2CCOCC2)nc(N2CCOCC2)c1 [Example 114, 3-(2-cyanopropan-2-yl)-N-(4-methyl-3-(2-morpholino-6-(tetrahydro-2H-pyran-4-yl)pyridin-4-yl)phenyl)benzamide]"
6,0.2 nM,"Cc1ccc(NC(=O)c2cccc(C(F)(F)F)c2)cc1-c1cncc(N2CCOCC2)n1 [Example 118, N-(4-methyl-3-(6-morpholinopyrazin-2-yl)phenyl)-3-(trifluoromethyl)benzamide]"
7,0.3 nM,"Cc1ccc(NC(=O)c2cccc(C(F)(F)F)c2)cc1-c1cn(C)c(=O)c(N2CCOCC2)n1 [Example 119, N-(4-methyl-3-(4-methyl-6-morpholino-5-oxo-4,5-dihydropyrazin-2-yl)phenyl)-3-(trifluoromethyl)benzamide]"
8,0.2 nM,"Cc1ccc(NC(=O)c2cccc(C(F)(F)F)c2)cc1-c1c[nH]c(=O)c(N2CCOCC2)n1 [Example 120, N-(4-methyl-3-(6-morpholino-5-oxo-4,5-dihydropyrazin-2-yl)phenyl)-3-(trifluoromethyl)benzamide]"
9,3.6 nM,"COc1ncc(-c2cc(NC(=O)c3ccnc(C(C)(C)C#N)c3)cnc2C)cc1N1CCOCC1 [Example 129, 2-(2-cyanopropan-2-yl)-N-(6′-methoxy-2-methyl-5′-morpholino-[3,3′-bipyridin]-5-yl)isonicotinamide]"
10,0.5 nM,"Cc1ccc(NC(=O)c2cccc(C(F)(F)F)c2)cc1-c1cnc(OC2CCOCC2)c(N2CCOCC2)c1 [Example 132, N-(4-methyl-3-(5-morpholino-6-((tetrahydro-2H-pyran-4-yl)oxy)pyridin-3-yl)phenyl)-3-(trifluoromethyl)benzamide]"
11,0.3 nM,"Cc1ccc(NC(=O)c2cccc(C(F)(F)F)c2)cc1-c1cc(N2CCOCC2)c(=O)n(C(C)C)c1 [Example 135, N-(3-(1-isopropyl-5-morpholino-6-oxo-1,6-dihydropyridin-3-yl)-4-methylphenyl)-3-(trifluoromethyl)benzamide]"
12,0.7 nM,"Cc1ccc(C(=O)Nc2cccc(C(F)(F)F)c2)cc1-c1cc(N2CCOCC2)c(=O)n(C)c1 [Example 137, 4-methyl-3-(1-methyl-5-morpholino-6-oxo-1,6-dihydropyridin-3-yl)-N-(3-(trifluoromethyl)phenyl)benzamide]"
13,0.8 nM,"Cc1ncc(NC(=O)c2cccc(C(F)(F)F)c2)cc1-c1cc(N2CCOCC2)c(=O)n(C)c1 [Example 138, N-(1′,2-dimethyl-5′-morpholino-6′-oxo-1′,6′-dihydro-[3,3′-bipyridin]-5-yl)-3-(trifluoromethyl)benzamide]"
14,0.2 nM,"Cc1ccc(NC(=O)c2cccc(C(F)(F)F)c2)cc1-c1c[nH]c(=O)c(N2CCOCC2)c1 [Example 146, N-(4-methyl-3-(5-morpholino-6-oxo-1,6-dihydropyridin-3-yl)phenyl)-3-(trifluoromethyl)benzamide]"
15,0.3 nM,"Cc1ccc(NC(=O)c2cccc(C(F)(F)F)c2)cc1-c1cc(N2CCOCC2)c(=O)n([C@H](C)C#N)c1 [Example 148, (R)—N-(3-(1-(1-cyanoethyl)-5-morpholino-6-oxo-1,6-dihydropyridin-3-yl)-4-methylphenyl)-3-(trifluoromethyl)benzamide]"
16,0.3 nM,"Cc1ccc(NC(=O)c2cccc(C(F)(F)F)c2)cc1-c1cc(N2CCOCC2)c(=O)n([C@@H](C)C#N)c1 [Example 149, (S)—N-(3-(1-(1-cyanoethyl)-5-morpholino-6-oxo-1,6-dihydropyridin-3-yl)-4-methylphenyl)-3-(trifluoromethyl)benzamide]"
17,0.5 nM,"Cc1ccc(NC(=O)c2cccc(C(F)(F)F)c2)cc1-c1cnc(O[C@@H](C)C#N)c(N2CCOCC2)c1 [Example 152, (S)—N-(3-(6-(1-cyanoethoxy)-5-morpholinopyridin-3-yl)-4-methylphenyl)-3-(trifluoromethyl)benzamide]"

row,IC50,SMILES
1,0.2 nM,"Cc1ccc(NC(=O)c2cccc(C(F)(F)F)c2)cc1-c1cc(N2CCOCC2)n(C)c(=O)c1 [Example 162, N-(4-methyl-3-(1-methyl-6-morpholino-2-oxo-1,2-dihydropyridin-4-yl)phenyl)-3-(trifluoromethyl)benzamide]"
2,0.3 nM,"Cc1ccc(NC(=O)c2cccc(C(F)(F)F)c2)cc1-c1cc(N2CCOCC2)c(=O)n(C)n1 [Example 164, N-(4-methyl-3-(1-methyl-5-morpholino-6-oxo-1,6-dihydropyridazin-3-yl)phenyl)-3-(trifluoromethyl)benzamide]"
3,0.2 nM,"CCn1cc(-c2cc(NC(=O)c3cccc(C(F)(F)F)c3)ccc2C)nc(N2CCOCC2)c1=O [Example 169, N-(3-(4-ethyl-6-morpholino-5-oxo-4,5-dihydropyrazin-2-yl)-4-methylphenyl)-3-(trifluoromethyl)benzamide]"
4,0.3 nM,"Cc1ccc(NC(=O)c2cccc(C(F)(F)F)c2)cc1-c1cn(CC(F)F)c(=O)c(N2CCOCC2)n1 [Example 170, N-(3-(4-(2,2-difluoroethyl)-6-morpholino-5-oxo-4,5-dihydropyrazin-2-yl)-4-methylphenyl)-3-(trifluoromethyl)benzamide]"
5,1.5 nM,"CCN1CCN(c2cc(C(=O)Nc3ccc(C)c(-c4cc(N5CCOCC5)c(=O)n(C)c4)c3)cc(C(F)(F)F)c2)CC1 [Example 174, 3-(4-ethylpiperazin-1-yl)-N-(4-methyl-3-(1-methyl-5-morpholino-6-oxo-1,6-dihydropyridin-3-yl)phenyl)-5-(trifluoromethyl)benzamide]"
6,0.2 nM,"Cc1ccc(NC(=O)c2cncc(N(C)C)c2)cc1-c1cc(N2CCOCC2)c(=O)n(C)c1 [Example 175, 5-(dimethylamino)-N-(4-methyl-3-(1-methyl-5-morpholino-6-oxo-1,6-dihydropyridin-3-yl)phenyl)nicotinamide]"
7,0.2 nM,"Cc1ccc(NC(=O)c2ccnc(C(C)(F)F)c2)cc1-c1cc(N2CCOCC2)c(=O)n(C)c1 [Example 178, 2-(1,1-difluoroethyl)-N-(4-methyl-3-(1-methyl-5-morpholino-6-oxo-1,6-dihydropyridin-3-yl)phenyl)isonicotinamide]"
8,0.2 nM,"Cc1ccc(NC(=O)c2ccnc(C(F)(F)F)c2)cc1-c1cc(N2CCOCC2)c(=O)n(C)c1 [Example 179, N-(4-methyl-3-(1-methyl-5-morpholino-6-oxo-1,6-dihydropyridin-3-yl)phenyl)-2-(trifluoromethyl)isonicotinamide]"
9,0.8 nM,"Cc1ccc(NC(=O)c2ccnc(S(C)(=O)=O)c2)cc1-c1cc(N2CCOCC2)c(=O)n(C)c1 [Example 184, N-(4-methyl-3-(1-methyl-5-morpholino-6-oxo-1,6-dihydropyridin-3-yl)phenyl)-2-(methylsulfonyl)isonicotinamide]"
10,0.3 nM,"Cc1ccc(NC(=O)c2cccc(C(F)F)c2)cc1-c1cc(N2CCOCC2)c(=O)n(C)n1 [Example 190, 3-(difluoromethyl)-N-(4-methyl-3-(1-methyl-5-morpholino-6-oxo-1,6-dihydropyridazin-3-yl)phenyl)benzamide]"
11,1.1 nM,"Cc1ccc(NC(=O)c2ccnc(C(C)(C)C#N)c2)cc1-c1cc(N2CCOCC2)c(=O)n(C)n1 [Example 191, 2-(2-cyanopropan-2-yl)-N-(4-methyl-3-(1-methyl-5-morpholino-6-oxo-1,6-dihydropyridazin-3-yl)phenyl)isonicotinamide]"
12,1.3 nM,"Cc1ccc(NC(=O)c2cccc(C(F)(F)F)c2)cc1-c1csc(N2CCOCC2)n1 [Example 199, N-(4-methyl-3-(2-morpholinothiazol-4-yl)phenyl)-3-(trifluoromethyl)benzamide]"
13,0.9 nM,"Cc1ccc(NC(=O)c2ccnc(C(C)(C)C#N)c2)cc1-c1cnc(OC(F)F)c(N2CCOCC2)c1 [Example 223, 2-(2-cyanopropan-2-yl)-N-(3-(6-(difluoromethoxy)-5-morpholinopyridin-3-yl)-4-methylphenyl)isonicotinamide]"
14,0.9 nM,"Cc1ncc(NC(=O)c2cccc(C(F)(F)F)c2)cc1-c1cnc(OC(F)F)c(N2CCOCC2)c1 [Example 224, N-(6′-(difluoromethoxy)-2-methyl-5′-morpholino-[3,3′-bipyridin]-5-yl)-3-(trifluoromethyl)benzamide]"
15,0.7 nM,"Cc1ccc(NC(=O)c2ccnc(C(C)(C)O)c2)cc1-c1cnc(OC(F)F)c(N2CCOCC2)c1 [Example 226, N-(3-(6-(difluoromethoxy)-5-morpholinopyridin-3-yl)-4-methylphenyl)-2-(2-hydroxypropan-2-yl)isonicotinamide]"
16,0.4 nM,"Cc1ncc(NC(=O)c2cccc(C(F)(F)F)c2)cc1-c1cnc(OCC(F)F)c(N2CCOCC2)c1 [Example 227, N-(6′-(2,2-difluoroethoxy)-2-methyl-5′-morpholino-[3,3′-bipyridin]-5-yl)-3-(trifluoromethyl)benzamide]"
17,1.1 nM,"Cc1ncc(NC(=O)c2ccnc(C(C)(C)C#N)c2)cc1-c1cnc(OCC(F)F)c(N2CCOCC2)c1 [Example 228, 2-(2-cyanopropan-2-yl)-N-(6′-(2,2-difluoroethoxy)-2-methyl-5′-morpholino-[3,3′-bipyridin]-5-yl)isonicotinamide]"

# Source: patent US9694016B2 (Novartis AG, priority 2013, dated 2017)
